Test results published in patent US6200762A, “Photon reducing agents and compositions for fluorescence assays” (Aurora Biosciences Corporation, priority 1998, dated 2001).
Only a part of the results on these compounds is given; other tests are left out.

Assay: Reduction of coumarin fluorescence by transition metal salts and complexes
Settings: ex. 395 nm, em. 460 nm; K-MOPS pH 7.15; 10 μM fluorophore

potassium ferricyanide (III)
concentration at which coumarin fluorescence can be reduced: low millimolar range
